Read-outs that look alike come from different tables or passages of the source.
How the values were obtained:
F. trinervia PEPC = target: T1, F. trinervia PEPC (Flaveria trinervia, UniProt P30694); assay type: biochemical; conditions: C4 PEPC over C3 isoform
T1 construct: the full-length ppcA gene of PEPC from F. trinervia (EMBL-Bank X61304); made in house; host or cells: Escherichia coli BL21(DE3)
T1 sequence (P30694 1-966): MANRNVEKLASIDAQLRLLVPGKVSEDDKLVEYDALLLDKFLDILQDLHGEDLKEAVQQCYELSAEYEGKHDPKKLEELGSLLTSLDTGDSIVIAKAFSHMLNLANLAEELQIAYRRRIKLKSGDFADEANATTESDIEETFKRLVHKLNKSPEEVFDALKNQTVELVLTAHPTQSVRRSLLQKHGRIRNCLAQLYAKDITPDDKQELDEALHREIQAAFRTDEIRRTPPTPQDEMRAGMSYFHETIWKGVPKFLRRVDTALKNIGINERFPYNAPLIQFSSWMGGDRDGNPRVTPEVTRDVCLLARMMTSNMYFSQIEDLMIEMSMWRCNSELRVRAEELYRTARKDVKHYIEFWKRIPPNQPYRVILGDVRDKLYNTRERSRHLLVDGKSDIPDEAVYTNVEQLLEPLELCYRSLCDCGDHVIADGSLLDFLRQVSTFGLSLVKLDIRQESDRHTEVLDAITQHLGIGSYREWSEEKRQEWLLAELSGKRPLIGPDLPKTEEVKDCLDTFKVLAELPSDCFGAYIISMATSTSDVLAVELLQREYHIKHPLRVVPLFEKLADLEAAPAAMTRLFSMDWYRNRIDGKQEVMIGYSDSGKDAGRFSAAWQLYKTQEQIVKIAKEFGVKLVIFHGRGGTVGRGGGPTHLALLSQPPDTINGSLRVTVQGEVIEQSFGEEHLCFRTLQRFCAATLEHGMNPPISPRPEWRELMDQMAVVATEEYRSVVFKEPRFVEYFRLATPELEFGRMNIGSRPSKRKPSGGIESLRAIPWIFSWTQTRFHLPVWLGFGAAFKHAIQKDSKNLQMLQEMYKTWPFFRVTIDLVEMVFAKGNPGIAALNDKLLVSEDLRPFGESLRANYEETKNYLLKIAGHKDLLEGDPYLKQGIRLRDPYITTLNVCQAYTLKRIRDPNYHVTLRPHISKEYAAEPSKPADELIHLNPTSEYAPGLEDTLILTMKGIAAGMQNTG
Description: The IC50 values of small molecule compounds on F. pringlei and F. trinervia PEPCs were determined using PEPC coupled spectrophotometric assay. The amount of NADH oxidized by NADH-malate dehydrogenase was measured by the decrease in absorbance at 340 nm in a Beckman DU-800 spectrophotometer, thus the value is in proportion to the corresponding substrate conversion of the enzyme. […] The reactions were started by adding two folds of the Km value of PEP for each enzyme. The data were analyzed using GraFit (Erithacus Software, UK).

human telomerase = target: human telomerase; design: method as in PMID 15588081; conditions: higher; cited from earlier work
A. retroflexus = experiment: Hyperspectral imaging (ARI, PRI), A. retroflexus; assay type: in vivo, Amaranthus retroflexus; conditions: two days after treatment, 3rd leaf, six replicates
[1] = target: T2, wild-type C4 PEPC from F. trinervia (Flaveria trinervia, UniProt P30694); experiment: Isothermal titration calorimetry, wild-type C4 PEPC; assay type: binding; conditions: ITC, in the presence of 17 mM aspartate; listed as Okanin
T2 construct: the full-length ppcA gene of PEPC from F. trinervia (EMBL-Bank X61304); made in house; host or cells: Escherichia coli BL21(DE3)
T2 sequence (P30694 1-966): T1 sequence (P30694 1-966)
Description: The binding affinities between small molecule compounds and PEPC enzymes were measured using a MicroCal iTC200 calorimeter (GE Healthcare). 18 injections (2 μl each) of 200 μM compound were injected into a sample cell containing 20 uM PEPC at 25 °C. The buffer of the compounds and the enzymes contained 50 mM Tris/HCl pH 7.5, 150 mM NaCl, 10 mM MgCl2. The data were analyzed with one-site-binding fitting using Origin software (MicroCal Inc.) to calculate the dissociation constant (Kd) of the small molecule inhibitors.

Compound: O=C(/C=C/c1ccc(O)c(O)c1)c1ccc(O)c(O)c1O [Compound 12, 2′,3′,4′,3,4-Pentahydroxy-chalcone]
- Selectivity C4/C3 (F. trinervia PEPC): 45 fold
- Selectivity C4/C3 (F. trinervia PEPC; listed as 2′,3′,4′,3,4-Pentahydroxychalcone): 15–45 fold
- IC50 on human telomerase relative to IC50 for inhibition of C4 PEPC (human telomerase): ~ 10 fold
- anthocyanin reflectance index (ARI) (A. retroflexus): significantly increased
- photochemical reflectance index (PRI) (A. retroflexus): significantly reduced
- Kd / binding [1]: not detected

Reference: PMC4893628, “Chalcone-based Selective Inhibitors of a C4 Plant Key Enzyme as Novel Potential Herbicides” (Scientific Reports, 2016)
